According to PubChem BioAssay (NCI):
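Cells were grown in 96-well plates and exposed to each compound for 48 hours at five concentrations; endpoints were interpolated linearly between bracketing concentrations, or set to the highest concentration if not reached. Abbreviation: GI50, concentration required for 50% inhibition of growth. The concentration for full growth arrest is given as TGI.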

Key:
Assay in all cases: NCI anticancer screen, dose series, 48 h
UACC-257 melanoma = tested on: UACC-257 melanoma
EKVX NSCLC = tested on: EKVX NSCLC
A498 renal = tested on: A498 renal
NCI-H522 lung = tested on: NCI-H522 lung
HCC-2998 colon = tested on: HCC-2998 colon
SK-MEL-2 melanoma = tested on: SK-MEL-2 melanoma
RXF 393 renal = tested on: RXF 393 renal
T-47D breast = tested on: T-47D breast
NCI-H322M lung = tested on: NCI-H322M lung
HOP-92 NSCLC = tested on: HOP-92 NSCLC
M14 melanoma = tested on: M14 melanoma

SMILES: CCOP1(=O)N=C(NC#N)N(C)C1(C)C (stereo not drawn)
- TGI (UACC-257 melanoma): > 100 µM
- TGI (EKVX NSCLC): > 100 µM
- GI50 (A498 renal): > 100 µM
- TGI (A498 renal): > 100 µM
- GI50 (NCI-H522 lung): > 100 µM
- TGI (NCI-H522 lung): > 100 µM
- GI50 (HCC-2998 colon): > 100 µM
- TGI (HCC-2998 colon): > 100 µM
- TGI (SK-MEL-2 melanoma): > 100 µM
- TGI (RXF 393 renal): > 100 µM
- GI50 (T-47D breast): > 100 µM
- TGI (T-47D breast): > 100 µM
- GI50 (NCI-H322M lung): > 100 µM
- TGI (NCI-H322M lung): > 100 µM
- GI50 (HOP-92 NSCLC): > 100 µM
- TGI (HOP-92 NSCLC): > 100 µM
- GI50 (M14 melanoma): > 100 µM
- TGI (M14 melanoma): > 100 µM
